Measured values reported in patent US20190177414A1 (AKESO BIOPHARMA, published 2019).
Positions count from the first letter of the chain named.

Tests used:
[1] = molecular target: T1, CTLA4 on the surface of cells (UniProt P16410 36-223, limits assumed); assay: flow cytometry on 293T-CTLA4 cells
T1 construct: whole, on cells; One entry is used for both cell types; the assay field says which cells; also called CTLA-4 target protein on the surface of T cells
T1 sequence (looked up): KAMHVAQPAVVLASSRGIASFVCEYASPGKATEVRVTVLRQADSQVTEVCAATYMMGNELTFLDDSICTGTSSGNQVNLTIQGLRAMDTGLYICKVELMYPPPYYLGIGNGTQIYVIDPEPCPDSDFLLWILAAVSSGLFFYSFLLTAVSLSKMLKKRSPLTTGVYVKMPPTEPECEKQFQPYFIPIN

CTLA4-mFc fusion protein [2] = molecular target: T2, CTLA4-mFc fusion protein (human); assay: competitive ELISA; competitor B7-1-hFc coated 1 ug/ml; CTLA4-mFc 0.3 ug/ml
T2 construct: also called CTLA4-mFc antigen

[3] = molecular target: T3, CTLA4 antigen (CTLA4 protein obtained by cleaving the CTLA4-mFc fusion protein with TEV protease) (human, UniProt P16410 36-161); assay: indirect ELISA; CTLA4 coated 2 ug/ml
T3 construct: extracellular domain; after cleavage part of the TEV site may remain at the C-terminus; also called CTLA4ECD
T3 sequence (looked up): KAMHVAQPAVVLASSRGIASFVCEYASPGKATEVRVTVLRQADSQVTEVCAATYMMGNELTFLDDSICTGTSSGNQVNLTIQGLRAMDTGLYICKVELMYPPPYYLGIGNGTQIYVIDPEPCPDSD

cyno CTLA-4 = molecular target: T4, cyno CTLA-4 (cyno, UniProt G7PL88 36-161); assay: absorbance at 450 nm against antibody concentration (ELISA-type readout; the text describes no method for this figure)
T4 sequence: T3 sequence (looked up) with S14N, I18T, L106M

CTLA4-mFc fusion protein [4] = molecular target: T2, CTLA4-mFc fusion protein; assay: competitive ELISA; competitor B7-1-hFc coated 0.5 ug/ml; CTLA4-mFc 0.3 ug/ml
[5] = molecular target: T3, CTLA4 antigen (CTLA4 protein obtained …); assay: indirect ELISA; CTLA4 coated 0.5 ug/ml

B1: humanized antibody 4G10H3L3 (antibody, V domains shown)
VH: QVQLVESGAEVKKPGASVKVSCKASGYSFTGYTMNWVRQAPGQGLEWIGLINPYNNITNYAQKFQGRVTFTVDTSISTAYMELSRLRSDDTGVYFCARLDYRSYWGQGTLVTVSA
VL: QAVVTQEPSLTVSPGGTVTLTCGSSTGAVTTSNFPNWVQQKPGQAPRSLIGGTNNKASWTPARFSGSLLGGKAALTISGAQPEDEAEYYCALWYSNHWVFGGGTKLTVLR
EC50 [1]: 5.4 nM
EC50 (CTLA4-mFc fusion protein [2]): 0.481 nM
EC50 [3]: 0.063 nM
EC50 (read off the curve) (cyno CTLA-4): ~0.1 nM

B2: humanized antibody 4G10H1L1 (antibody, V domains shown)
VH: QVQLVESGAELVKPGASMKISCKASGYSFTGYTMNWVKQAPGQGLEWIGLINPYNNITNYNQKFMGKATFTVDKSISTAYMELSRLTSDDSGVYFCARLDYRSYWGQGTLVTVSA
VL: B1 VL with P35A, Q40E, P46F, K56R, T60V, Y89F
EC50 (CTLA4-mFc fusion protein [4]): 1.37 nM
EC50 [5]: 0.074 nM
